This assay deals with Hst2 (Saccharomyces cerevisiae, UniProt P53686). The assay is described as follows: biochemical.

Sequences of proteins named here, by UniProt entry; tags and fusion partners are left off. Residues count along the entry.
UniProt P53686, 1-294: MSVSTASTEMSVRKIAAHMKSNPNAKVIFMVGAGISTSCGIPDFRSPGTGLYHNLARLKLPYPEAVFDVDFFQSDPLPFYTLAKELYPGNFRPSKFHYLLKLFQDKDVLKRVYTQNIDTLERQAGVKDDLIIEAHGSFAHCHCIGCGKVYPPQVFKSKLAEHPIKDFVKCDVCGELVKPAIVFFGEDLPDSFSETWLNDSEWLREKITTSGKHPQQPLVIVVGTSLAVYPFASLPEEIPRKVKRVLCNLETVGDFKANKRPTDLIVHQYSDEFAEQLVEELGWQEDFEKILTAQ

Each structure is given as a SMILES string.

Regarding `COCC#CC1c2cc(O)c(OC)cc2CCN1C` (centres unmarked) [Compound 14a, 6-Methoxy-1-(3-methoxy-prop-1-ynyl)-2-methyl-1,2,3,4-tetrahydro-isoquinolin-7-ol], under “read-out: % Activity at 50 μM”, the activity at 50 µM is 76%. Further, where the note is “read-out: % Activity at 500 μM”, the activity at 500 µM came to 5%.

The record behind these values is PMC2929362 (Bioorganic & medicinal chemistry, 2009).
